Values of other authors as cited in patent US11111252B2, “Pyrimidine compounds and pyrimido indole compounds and methods of use” (Duquesne University of the Holy Spirit, priority 2014, dated 2021).

By UniProt entry, the sequences of proteins in these tests, tags left out. Residues count along the entry.
UniProt P09619, 33-1106, species assumed: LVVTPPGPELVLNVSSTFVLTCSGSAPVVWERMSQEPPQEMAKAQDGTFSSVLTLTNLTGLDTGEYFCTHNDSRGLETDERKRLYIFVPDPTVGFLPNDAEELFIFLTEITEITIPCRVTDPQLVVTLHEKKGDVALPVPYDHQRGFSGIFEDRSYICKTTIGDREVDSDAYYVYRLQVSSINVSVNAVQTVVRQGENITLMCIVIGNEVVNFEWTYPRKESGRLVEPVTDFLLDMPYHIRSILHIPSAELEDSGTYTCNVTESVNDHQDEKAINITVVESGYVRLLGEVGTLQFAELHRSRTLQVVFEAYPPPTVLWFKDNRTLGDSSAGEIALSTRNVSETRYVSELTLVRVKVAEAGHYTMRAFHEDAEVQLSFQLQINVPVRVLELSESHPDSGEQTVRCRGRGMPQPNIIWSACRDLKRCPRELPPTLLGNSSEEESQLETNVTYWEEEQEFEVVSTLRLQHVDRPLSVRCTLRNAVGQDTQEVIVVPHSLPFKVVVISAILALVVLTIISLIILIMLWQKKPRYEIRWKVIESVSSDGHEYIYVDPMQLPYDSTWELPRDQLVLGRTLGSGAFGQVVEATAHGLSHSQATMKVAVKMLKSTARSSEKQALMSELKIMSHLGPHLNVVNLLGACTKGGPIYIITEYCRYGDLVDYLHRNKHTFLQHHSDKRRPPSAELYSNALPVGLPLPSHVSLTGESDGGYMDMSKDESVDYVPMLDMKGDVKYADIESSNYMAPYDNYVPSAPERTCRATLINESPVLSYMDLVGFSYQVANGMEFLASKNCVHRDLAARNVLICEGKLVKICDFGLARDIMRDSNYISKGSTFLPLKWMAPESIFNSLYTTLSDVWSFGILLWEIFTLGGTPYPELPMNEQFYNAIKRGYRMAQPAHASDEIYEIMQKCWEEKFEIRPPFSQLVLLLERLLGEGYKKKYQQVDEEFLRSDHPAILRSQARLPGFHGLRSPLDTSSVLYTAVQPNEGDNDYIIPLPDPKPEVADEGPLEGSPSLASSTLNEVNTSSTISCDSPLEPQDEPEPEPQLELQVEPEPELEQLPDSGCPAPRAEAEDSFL

Molecular target: PDGFR-β (Homo sapiens (Human), UniProt P09619)
Details: Table 9; read-out: PDGFR-β Kinase Inhibition IC50; cited from earlier work

For `CN(C)c1ccc(/C=C2/C(=O)Nc3ccccc32)cc1` [DMBI], the pIC50 is listed as 5.43.

pIC50: −log10 of the molar value.
